In PubChem BioAssay AID624267 (The Scripps Research Institute Molecular Screening Center, 2012):
The list shows a part of the results, in another mix than the full data. Some structures show a salt or complex split into parts, the way the source records it. The source made the active and inactive calls. No stated cut-off is given here; in the data, active means inhibition above about 21%; inactive means the rest.

The chains behind the UniProt entries cited, without tags or fusion partners.
UniProt O43353, whole entry: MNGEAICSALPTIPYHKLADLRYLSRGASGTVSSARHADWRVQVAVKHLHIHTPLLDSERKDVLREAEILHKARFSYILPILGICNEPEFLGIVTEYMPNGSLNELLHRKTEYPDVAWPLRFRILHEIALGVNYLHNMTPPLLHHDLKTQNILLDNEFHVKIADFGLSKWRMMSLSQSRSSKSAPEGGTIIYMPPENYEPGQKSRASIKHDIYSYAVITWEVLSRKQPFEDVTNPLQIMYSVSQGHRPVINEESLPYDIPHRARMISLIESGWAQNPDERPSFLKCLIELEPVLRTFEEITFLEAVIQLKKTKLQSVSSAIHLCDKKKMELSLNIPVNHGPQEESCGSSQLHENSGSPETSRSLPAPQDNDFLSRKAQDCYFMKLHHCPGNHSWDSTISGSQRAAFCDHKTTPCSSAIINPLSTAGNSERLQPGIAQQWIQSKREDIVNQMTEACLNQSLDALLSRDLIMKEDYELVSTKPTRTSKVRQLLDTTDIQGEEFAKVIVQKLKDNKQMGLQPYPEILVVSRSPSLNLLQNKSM

Biological target: Receptor-interacting serine/threonine-protein kinase 2 (Homo sapiens) (UniProt O43353)
Experiment: NOD2-RIPK2 binding disruptors in cells, primary screen, fluorescence, CHO cells, BLA complementation (AID 624267);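 further: 0% = vehicle only and 100% = reference blocker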
Conditions: CHO BLA complementation NOD2-RIPK2, CCF4 ratio; at 4.98 µM; hits give high values

Compound | inhibition
Cc1cc(-c2cccc3ccccc23)c(C)cn1.O=[N+]([O-])c1cc([N+](=O)[O-])c(O)c([N+](=O)[O-])c1 | inactive: 1.41%
O=[N+]([O-])c1cc([N+](=O)[O-])c(NCC2CCS(=O)(=O)C2)c([N+](=O)[O-])c1 (configuration not stated) | inactive: 0.04%
O=[N+]([O-])c1ccc(OP2(=O)COCCO2)cc1 (configuration not stated) | inactive: -8.63%
COc1ccc(NP(C)(=O)Oc2ccccc2OC)cc1 (configuration not stated) | inactive: -1.39%
CN(C)CCOC(=O)C(O)(c1ccccc1)C1CCCCC1 (configuration not stated) | inactive: -0.56%
COc1ccc(OP(C)(=O)Nc2cccc(Br)c2)cc1 (configuration not stated) | inactive: -6.65%
CCCCCOc1ccc(NP(C)(=O)Oc2ccc(Cl)cc2Cl)cc1 (configuration not stated) | inactive: -10.3%
O=[N+]([O-])c1cc([N+](=O)[O-])c(OC2CCCCC2O)c([N+](=O)[O-])c1 (configuration not stated) | inactive: -11.9%
CP(=O)(Nc1ccccc1)Oc1ccc(F)cc1 (configuration not stated) | inactive: -3.23%
CCN(CC)CCCOC(=O)C(O)(c1ccccc1)C1CCCCC1 (configuration not stated) | inactive: -1.11%
Cc1c([N+](=O)[O-])cc([N+](=O)[O-])c(Br)c1[N+](=O)[O-] | inactive: 3.2%
COc1ccc(OP(C)(=O)Nc2ccc(SC(F)(F)F)cc2)cc1 (configuration not stated) | inactive: 4.92%
CCOC(=O)c1ccc(NP(C)(=O)Oc2ccc(F)cc2)cc1 (configuration not stated) | inactive: -3.87%
CCN(CC)CCCNc1ccccc1[N+](=O)[O-].O=[N+]([O-])c1cc([N+](=O)[O-])c(O)c([N+](=O)[O-])c1 | inactive: -11.4%
COc1ccc2c(c1O)-c1c(O)c(OC)cc3c1[C@H](C2)[N+](C)(C)CC3.O=[N+]([O-])c1cc([N+](=O)[O-])c([O-])c([N+](=O)[O-])c1[O-] | inactive: -10.4%
O=C(OCCN1CCN(CCOCc2ccccc2)CC1)C(O)(c1ccccc1)c1ccccc1 | inactive: -7.28%
O=C(OC1CN2CCC1CC2)c1ccc([N+](=O)[O-])cc1 (configuration not stated) | inactive: -0.42%
CC(C)c1ccc(OP(C)(=O)Nc2ccc(SC(F)(F)F)cc2)cc1 (configuration not stated) | inactive: -7.07%
CP(=O)(Nc1ccccc1F)Oc1ccccc1 (configuration not stated) | inactive: 8.54%
O=[N+]([O-])c1cc([N+](=O)[O-])c(Nc2ccc(Cl)cc2)c([N+](=O)[O-])c1 | inactive: 3.82%
CCc1ccc(OP(C)(=O)O)cc1 | inactive: -2.25%
COc1ccccc1OP(C)(=O)Nc1ccc(C)cc1C (configuration not stated) | inactive: -1.53%
CP(=O)(Nc1ccccn1)Oc1ccccc1 (configuration not stated) | inactive: 10.8%
Cc1c(NP(C)(=O)Oc2ccc(C(C)C)cc2)c(=O)n(-c2ccccc2)n1C (configuration not stated) | inactive: 1.47%

Compound | inhibition
O=[N+]([O-])c1cc([N+](=O)[O-])c(Nc2ccccn2)c([N+](=O)[O-])c1 | inactive: 14.5%
CN(C)CCOC(=O)C(O)(c1ccccc1)C1CCCC1 (configuration not stated) | inactive: -17.5%
COc1ccc(OP(C)(=O)Nc2ccccn2)cc1 (configuration not stated) | inactive: -13.9%
COc1ccccc1OP(C)(=O)Nc1ccc(Br)cc1 (configuration not stated) | inactive: 2.84%
CCCCCCCCCCCCCCCC1C[N+](C)(C)CCOP(C)(=O)O1 (configuration not stated) | inactive: 14.7%
CP(=O)(Nc1ccc(Cl)cc1Cl)Oc1ccccc1 (configuration not stated) | inactive: -11.7%
CP(=O)(OCCOc1ccccc1)OCCOc1ccccc1 | inactive: -6.93%
COc1ccc(OP(C)(=O)Nc2ccccc2Br)cc1 (configuration not stated) | inactive: -20.5%
COc1ccccc1OP(C)(=O)Nc1ccc(C)c(C)c1 (configuration not stated) | inactive: -5.3%
Cc1cc(C)cc(OP(C)(=O)Nc2cccc(C(F)(F)F)c2)c1 (configuration not stated) | inactive: -1.08%
O=C1C(O)=C([N+](=O)[O-])C(=O)C(O)=C1[N+](=O)[O-] | inactive: -4.69%
CP(=O)(OC12CC3CC(CC(C3)C1)C2)OC12CC3CC(CC(C3)C1)C2 | inactive: -1.09%
CCOC(=O)c1ccc(NP(C)(=O)Oc2ccc(Cl)cc2)cc1 (configuration not stated) | inactive: 4.59%
CN(C)C(=O)c1c([N+](=O)[O-])cc([N+](=O)[O-])cc1[N+](=O)[O-] | inactive: -21.9%
CP(=O)(Nc1ccc(Cl)cc1)Oc1ccc(F)cc1 (configuration not stated) | inactive: -2.65%
COc1ccccc1OP(C)(=O)Nc1ccccc1Br (configuration not stated) | inactive: 4.49%
CC(C)(C)c1ccc(OP(C)(=O)O)cc1 | inactive: -18.1%
CCc1ccc(OP(C)(=O)Nc2cccnc2)cc1 (configuration not stated) | inactive: -20.5%
CP(=O)(Oc1ccccc1)N1CCOC1=O (configuration not stated) | inactive: 14%
O=C(OCCCN1CCCC1)C(O)(c1ccccc1)C1CCCCC1 (configuration not stated) | inactive: -4.2%
COc1ccccc1OP(C)(=O)Nc1c(C)n(C)n(-c2ccccc2)c1=O (configuration not stated) | inactive: -0.88%
COc1ccc(OP(C)(=O)Nc2ccc(Br)cc2)cc1 (configuration not stated) | inactive: 2.41%
CCN(CC)CC(O)COC(=O)C(O)(c1ccccc1)C1CCCCC1 (configuration not stated) | inactive: -1.36%
